Source: ChEMBL document CHEMBL4680373, “Evaluation of 5-(Trifluoromethyl)-1,2,4-oxadiazole-Based Class IIa HDAC Inhibitors for Huntington's Disease” (ACS Med Chem Lett, 2021)

Sequences of proteins named here, by UniProt entry; tags and fusion partners are left off. A change or cut given only in a name is not applied to a line headed by its entry.
UniProt P56524: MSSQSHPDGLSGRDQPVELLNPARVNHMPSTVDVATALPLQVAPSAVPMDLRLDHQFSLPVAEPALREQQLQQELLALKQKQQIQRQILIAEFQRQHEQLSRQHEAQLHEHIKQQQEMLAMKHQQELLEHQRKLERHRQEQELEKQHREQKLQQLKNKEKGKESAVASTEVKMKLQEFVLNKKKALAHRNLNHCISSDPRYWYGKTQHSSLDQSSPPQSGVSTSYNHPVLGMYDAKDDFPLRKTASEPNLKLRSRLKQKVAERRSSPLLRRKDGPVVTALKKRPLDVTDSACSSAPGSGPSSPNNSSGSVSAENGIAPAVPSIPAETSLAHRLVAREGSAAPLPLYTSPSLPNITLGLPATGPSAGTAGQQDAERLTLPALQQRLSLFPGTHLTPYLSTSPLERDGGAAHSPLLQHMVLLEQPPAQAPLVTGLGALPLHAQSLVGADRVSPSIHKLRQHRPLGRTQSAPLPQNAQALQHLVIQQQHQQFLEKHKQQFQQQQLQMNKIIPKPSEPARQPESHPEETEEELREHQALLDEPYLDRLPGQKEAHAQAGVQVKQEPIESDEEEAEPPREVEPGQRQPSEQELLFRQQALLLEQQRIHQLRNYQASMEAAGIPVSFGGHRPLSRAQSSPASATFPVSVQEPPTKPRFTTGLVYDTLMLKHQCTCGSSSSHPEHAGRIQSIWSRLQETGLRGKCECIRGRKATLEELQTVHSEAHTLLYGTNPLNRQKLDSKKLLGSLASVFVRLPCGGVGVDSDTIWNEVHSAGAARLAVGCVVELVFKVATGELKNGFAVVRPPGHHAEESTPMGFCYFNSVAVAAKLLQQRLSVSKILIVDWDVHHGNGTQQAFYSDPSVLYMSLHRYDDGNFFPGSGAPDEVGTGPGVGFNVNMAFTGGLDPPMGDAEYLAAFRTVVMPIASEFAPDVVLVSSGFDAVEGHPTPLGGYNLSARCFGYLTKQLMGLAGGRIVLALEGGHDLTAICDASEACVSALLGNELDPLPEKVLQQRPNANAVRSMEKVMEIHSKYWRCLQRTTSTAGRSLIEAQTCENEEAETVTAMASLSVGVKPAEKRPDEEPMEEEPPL

Experiments:
Histone deacetylase 4 [1] = biological target: T1, Histone deacetylase 4 (Homo sapiens, UniProt P56524); experiment: Binding affinity to immobilized HDAC4 catalytic domain (unknown origin) by surface plasmon resonance assay
Histone deacetylase 4 [2] = biological target: T1, Histone deacetylase 4; experiment: Inhibition of HDAC4 (unknown origin) using Boc Lys(TFA) as substrate by fluorogenic assay
Method in brief: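 Biochemical HDAC isoform assay with the artificial fluorogenic substrate Boc-Lys-(TFA)-AMC, which is specific to class IIa enzymes and HDAC8. IC50 taken as the geometric mean of three experiments.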

Histone deacetylase 4 [3] = biological target: T1, Histone deacetylase 4; experiment: Inhibition of Class 2A HDAC4 in human Jurkat E6.1 cells using Boc-Lys-(TFA)-AMC as substrate by fluorogenic assay; assay type: cell-based
Method in brief: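 Whole-cell assay in Jurkat E6.1 cells with artificial fluorogenic substrates: Boc-Lys-(TFA)-AMC for class IIa/HDAC8 activity, which in this line is mostly HDAC4, and Boc-Lys-(Ac)-AMC for class I/IIb activity. IC50 given as the geometric mean of three experiments.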

SMILES: CCCN(CCC)C[C@@H](C)NC(=O)c1ccc(-c2noc(C(F)(F)F)n2)cc1
- Kd (Histone deacetylase 4 [1]): 44 nM
- IC50 (Histone deacetylase 4 [2]): 3 nM
- IC50 (Histone deacetylase 4 [3]): 20 nM
